Data reported in patent US10221171B2, “Oxathiazole thiazolium Hsp 70 inhibitors” (THE REGENTS OF THE UNIVERSITY OF CALIFORNIA, priority 2015, dated 2019).

Key:
MEF (C57BL/6) = experiment: MTT cell viability assay, MEF (C57BL/6); assay type: cell-based; conditions: ratio of EC50 MEF to EC50 MCF-7
Protocol: (§1) Cells were then treated with compound at various concentrations in 0.2 mL media. After the 72-hour incubation period, cells were washed in PBS (3×100 μL), and 10 μL MTT reagent was added with 100 μL fresh media. Cells were then incubated for 4 hr in a humidified chamber at 37° C. with 5% CO2. Insoluble formazan crystals were solubilized by addition of 0.1 mL detergent solution (4 hr at room temp., dark). Resulting colored solutions were then quantified at an absorbance of 570 nm.

IMR-90 = experiment: Cell viability, IMR-90; assay type: cell-based; conditions: ratio of EC50 IMR-90 to EC50 MCF-7
Protocol: as §1

SMILES | SI MEF/MCF-7 (MEF (C57BL/6)) | SI IMR-90/MCF-7 (IMR-90)
CCc1ccc2c(c1)S/C(=c1/s/c(=C\c3scc[n+]3Cc3ccccc3C(=O)OC)n(CC)c1=O)N2C.[Cl-] [JG-345] | 20 | 65
CCn1c(=O)/c(=C2\Sc3cc(Br)ccc3N2C)s/c1=C\c1scc[n+]1Cc1ccc(C(F)(F)F)o1.[Cl-] [JG-294] | 35 | 98
